{"source": "patent US11793867B2", "about": "“Neoantigens and uses thereof” (BIONTECH US INC., priority 2017, dated 2023)", "origin": "cited, not measured here", "settings": "more than 25 clinical trials; cited from earlier work", "data": [{"substance": "poly-ICLC", "values": [{"measurement": "toxicity profile", "result": "relatively benign toxicity profile"}]}]}
